Test system: PBMC of newly diagnosed T1D patients
Assay: GAD65 HLA class I tetramer staining and flow cytometry of stimulated PBMC, T1D patients
Assay type: cell-based, human

In the case of “IL-2: cytokine used at 25 IU/ml for basal stimulation of PBMC [reference compound]”, the “% of CD3+/CD8+/GAD65 reactive T cells (specificity of the response)” value is reported as 1.89%.

— patent publication US20070026465A1, “Method for detecting GAD65 autoreactive T cells newly diagnosed type1 diabetic patients and in the prediabetic period” (priority 2005, published 2007)
